Reference: patent publication US4618612A (Medosan Industrie Biochimiche Riunite S.p.A., priority 1983, dated 1986)

System: gastric mucosa
Assay: Gastric tolerance (ulcerogenic activity)
Assay type: in vivo, male Wistar rats
Conditions: 4 days; for Gastric Damage index: vehicle 8
Experimental: This was studied by conducting tests of ulcerogenic activity in male Wistar rats, weighing 180 g on the average, in groups of 10 animals each. Three doses of each substance were given, and one group of animals was treated with vehicle only in a volume of 10 ml/kg bodyweight. Each dose was given orally for four consecutive days; on the fifth day, the rats were killed and autopsied. The ulcerogenic effect was assessed according to the following scale:
(1) each hemorrhage point ≥1 mm was evaluated as 1 lesion
(2) hemorrhage points smaller than 1 mm were counted as follows:
(b) from 1 to 19:2 lesions
(c) from 1 to 29:3 lesions
(2) gastric mucosa irritation: 1
(3) hemorrahge points <1 mm: 2
(4) hemorrhage points between 1 and 3 mm: 3
(5) hemorrhage points >3 mm: 4
This scale was used to calculate the following gastric damage index: [formula]

In the case of `Cc1ccc(C(=O)c2ccc(CC(=O)O)n2C)cc1` [Na Tolmetin 2H2 O, 1-methyl-5-p-methylbenzoylpyrrol-2-acetic acid, reference compound], the “Gastric Damage index, second figure (after +; difference from vehicle)” value (50 mg/kg oral) is reported as 3, the “Gastric Damage index” value (50 mg/kg oral) is reported as 11 and the “Gastric Damage index, second figure (after +; difference from vehicle)” value (100 mg/kg oral) is reported as 8. For the same compound, the “Gastric Damage index” value (100 mg/kg oral) was 16, the “Gastric Damage index, second figure (after +; difference from vehicle)” value (200 mg/kg oral) was 9 and the “Gastric Damage index” value (200 mg/kg oral) was 17.
